For one compound, inhibition results are on record in paper PMC8231556, “Inhibiting Endothelial Cell Function in Normal and Tumor Angiogenesis Using BMP Type I Receptor Macrocyclic Kinase Inhibitors” (Cancers, 2021).

By UniProt entry, the sequences of proteins in these tests, tags left out. Where a name states a change or a piece, a line headed by the entry shows the natural chain unless it says otherwise. Residues count along the entry.
UniProt P36888, 27-993: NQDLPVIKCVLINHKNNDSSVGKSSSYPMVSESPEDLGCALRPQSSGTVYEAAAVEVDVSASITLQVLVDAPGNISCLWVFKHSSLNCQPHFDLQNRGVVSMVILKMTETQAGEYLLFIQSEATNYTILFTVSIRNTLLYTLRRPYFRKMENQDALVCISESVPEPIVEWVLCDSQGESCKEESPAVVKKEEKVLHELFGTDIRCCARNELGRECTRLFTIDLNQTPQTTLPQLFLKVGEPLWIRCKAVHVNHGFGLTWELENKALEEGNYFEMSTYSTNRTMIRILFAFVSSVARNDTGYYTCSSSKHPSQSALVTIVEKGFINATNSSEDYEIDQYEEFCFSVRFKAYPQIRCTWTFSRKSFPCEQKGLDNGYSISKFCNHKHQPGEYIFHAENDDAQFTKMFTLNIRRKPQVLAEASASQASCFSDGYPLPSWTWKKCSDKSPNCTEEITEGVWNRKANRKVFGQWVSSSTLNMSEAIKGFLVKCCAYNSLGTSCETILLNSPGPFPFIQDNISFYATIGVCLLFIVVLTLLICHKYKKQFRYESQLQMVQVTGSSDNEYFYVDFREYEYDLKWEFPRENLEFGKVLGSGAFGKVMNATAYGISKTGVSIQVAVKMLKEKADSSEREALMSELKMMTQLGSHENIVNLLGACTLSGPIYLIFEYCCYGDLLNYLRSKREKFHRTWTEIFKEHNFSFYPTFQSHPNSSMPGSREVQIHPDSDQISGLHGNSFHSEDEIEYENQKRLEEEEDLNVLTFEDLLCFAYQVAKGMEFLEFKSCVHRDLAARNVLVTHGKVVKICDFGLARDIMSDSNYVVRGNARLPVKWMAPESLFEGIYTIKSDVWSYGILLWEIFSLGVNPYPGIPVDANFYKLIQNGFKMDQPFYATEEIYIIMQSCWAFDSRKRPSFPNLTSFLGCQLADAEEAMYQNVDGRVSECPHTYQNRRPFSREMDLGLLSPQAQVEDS
UniProt O95819: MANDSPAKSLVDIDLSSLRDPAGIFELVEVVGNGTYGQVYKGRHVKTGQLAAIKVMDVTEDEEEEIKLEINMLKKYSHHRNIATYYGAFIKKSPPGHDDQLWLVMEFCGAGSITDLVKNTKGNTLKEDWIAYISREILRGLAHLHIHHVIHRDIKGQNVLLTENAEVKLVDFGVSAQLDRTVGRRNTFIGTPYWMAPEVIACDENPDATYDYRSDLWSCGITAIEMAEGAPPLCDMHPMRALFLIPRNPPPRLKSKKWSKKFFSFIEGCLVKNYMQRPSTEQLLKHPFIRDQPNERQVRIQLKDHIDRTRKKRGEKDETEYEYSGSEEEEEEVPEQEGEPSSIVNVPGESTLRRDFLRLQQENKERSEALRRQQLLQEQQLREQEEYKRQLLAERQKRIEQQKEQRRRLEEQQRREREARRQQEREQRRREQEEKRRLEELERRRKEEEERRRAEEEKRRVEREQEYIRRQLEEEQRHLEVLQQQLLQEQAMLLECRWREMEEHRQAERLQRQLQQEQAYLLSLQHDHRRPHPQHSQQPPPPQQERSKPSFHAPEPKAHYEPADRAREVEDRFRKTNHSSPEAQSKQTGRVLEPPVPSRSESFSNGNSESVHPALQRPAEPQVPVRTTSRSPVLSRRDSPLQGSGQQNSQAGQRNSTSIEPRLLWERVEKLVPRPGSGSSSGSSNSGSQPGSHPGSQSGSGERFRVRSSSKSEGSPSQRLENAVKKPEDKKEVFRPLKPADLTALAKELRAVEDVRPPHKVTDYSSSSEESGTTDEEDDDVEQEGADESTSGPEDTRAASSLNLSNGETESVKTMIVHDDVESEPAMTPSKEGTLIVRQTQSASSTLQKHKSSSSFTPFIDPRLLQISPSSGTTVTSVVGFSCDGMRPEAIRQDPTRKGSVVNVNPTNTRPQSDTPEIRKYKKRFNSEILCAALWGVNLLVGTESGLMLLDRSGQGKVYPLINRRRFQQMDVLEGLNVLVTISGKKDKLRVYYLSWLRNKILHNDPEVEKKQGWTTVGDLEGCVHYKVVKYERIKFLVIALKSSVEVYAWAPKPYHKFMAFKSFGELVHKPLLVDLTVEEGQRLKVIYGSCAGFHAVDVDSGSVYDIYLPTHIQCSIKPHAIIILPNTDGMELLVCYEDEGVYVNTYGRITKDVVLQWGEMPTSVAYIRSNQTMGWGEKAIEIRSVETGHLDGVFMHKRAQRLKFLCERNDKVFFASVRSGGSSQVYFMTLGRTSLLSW
UniProt Q9Y4K4: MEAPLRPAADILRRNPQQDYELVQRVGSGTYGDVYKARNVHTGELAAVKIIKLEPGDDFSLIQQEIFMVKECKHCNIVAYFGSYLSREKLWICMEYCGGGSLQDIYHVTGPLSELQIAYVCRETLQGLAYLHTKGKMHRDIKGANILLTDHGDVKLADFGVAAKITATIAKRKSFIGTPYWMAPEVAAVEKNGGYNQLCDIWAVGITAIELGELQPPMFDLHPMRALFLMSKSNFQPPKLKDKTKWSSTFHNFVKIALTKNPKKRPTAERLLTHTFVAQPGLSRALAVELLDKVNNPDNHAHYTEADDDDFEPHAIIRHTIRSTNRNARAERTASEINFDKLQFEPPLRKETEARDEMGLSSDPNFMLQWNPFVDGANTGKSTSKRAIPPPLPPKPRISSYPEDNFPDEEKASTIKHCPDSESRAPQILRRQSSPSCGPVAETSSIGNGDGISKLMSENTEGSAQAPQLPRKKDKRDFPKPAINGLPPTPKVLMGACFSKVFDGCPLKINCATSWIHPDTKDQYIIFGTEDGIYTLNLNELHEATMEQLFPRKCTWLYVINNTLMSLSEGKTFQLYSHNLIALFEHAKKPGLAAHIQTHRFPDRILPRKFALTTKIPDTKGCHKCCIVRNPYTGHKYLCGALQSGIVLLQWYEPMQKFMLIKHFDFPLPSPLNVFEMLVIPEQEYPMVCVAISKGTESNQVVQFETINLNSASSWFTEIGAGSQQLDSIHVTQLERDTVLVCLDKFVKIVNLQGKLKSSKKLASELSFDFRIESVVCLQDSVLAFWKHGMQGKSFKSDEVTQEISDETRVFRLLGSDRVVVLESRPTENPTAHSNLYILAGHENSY
UniProt Q9H0K1: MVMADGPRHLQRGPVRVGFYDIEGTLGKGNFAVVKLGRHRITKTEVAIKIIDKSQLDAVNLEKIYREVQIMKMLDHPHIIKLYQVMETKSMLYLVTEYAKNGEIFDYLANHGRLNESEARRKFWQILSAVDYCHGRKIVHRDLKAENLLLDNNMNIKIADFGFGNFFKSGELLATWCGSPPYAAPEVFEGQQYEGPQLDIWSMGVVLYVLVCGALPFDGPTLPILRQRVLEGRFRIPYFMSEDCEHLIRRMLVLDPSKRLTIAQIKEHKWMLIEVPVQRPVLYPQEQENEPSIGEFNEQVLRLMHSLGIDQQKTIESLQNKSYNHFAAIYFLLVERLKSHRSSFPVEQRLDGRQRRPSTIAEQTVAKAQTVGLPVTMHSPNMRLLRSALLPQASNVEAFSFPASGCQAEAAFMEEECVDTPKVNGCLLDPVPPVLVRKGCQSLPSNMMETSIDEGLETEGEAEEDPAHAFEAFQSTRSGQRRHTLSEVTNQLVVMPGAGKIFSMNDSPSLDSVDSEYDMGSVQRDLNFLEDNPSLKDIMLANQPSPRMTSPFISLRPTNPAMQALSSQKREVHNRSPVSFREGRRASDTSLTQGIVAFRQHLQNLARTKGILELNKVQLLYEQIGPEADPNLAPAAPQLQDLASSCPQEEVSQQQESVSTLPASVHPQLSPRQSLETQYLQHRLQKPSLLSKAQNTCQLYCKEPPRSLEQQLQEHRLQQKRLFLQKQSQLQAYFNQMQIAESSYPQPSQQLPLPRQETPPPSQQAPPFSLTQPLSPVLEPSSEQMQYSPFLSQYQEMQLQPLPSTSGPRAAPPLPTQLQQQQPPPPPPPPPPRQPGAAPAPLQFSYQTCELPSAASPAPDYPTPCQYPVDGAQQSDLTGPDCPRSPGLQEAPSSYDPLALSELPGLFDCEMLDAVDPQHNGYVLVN
UniProt P15056, whole entry: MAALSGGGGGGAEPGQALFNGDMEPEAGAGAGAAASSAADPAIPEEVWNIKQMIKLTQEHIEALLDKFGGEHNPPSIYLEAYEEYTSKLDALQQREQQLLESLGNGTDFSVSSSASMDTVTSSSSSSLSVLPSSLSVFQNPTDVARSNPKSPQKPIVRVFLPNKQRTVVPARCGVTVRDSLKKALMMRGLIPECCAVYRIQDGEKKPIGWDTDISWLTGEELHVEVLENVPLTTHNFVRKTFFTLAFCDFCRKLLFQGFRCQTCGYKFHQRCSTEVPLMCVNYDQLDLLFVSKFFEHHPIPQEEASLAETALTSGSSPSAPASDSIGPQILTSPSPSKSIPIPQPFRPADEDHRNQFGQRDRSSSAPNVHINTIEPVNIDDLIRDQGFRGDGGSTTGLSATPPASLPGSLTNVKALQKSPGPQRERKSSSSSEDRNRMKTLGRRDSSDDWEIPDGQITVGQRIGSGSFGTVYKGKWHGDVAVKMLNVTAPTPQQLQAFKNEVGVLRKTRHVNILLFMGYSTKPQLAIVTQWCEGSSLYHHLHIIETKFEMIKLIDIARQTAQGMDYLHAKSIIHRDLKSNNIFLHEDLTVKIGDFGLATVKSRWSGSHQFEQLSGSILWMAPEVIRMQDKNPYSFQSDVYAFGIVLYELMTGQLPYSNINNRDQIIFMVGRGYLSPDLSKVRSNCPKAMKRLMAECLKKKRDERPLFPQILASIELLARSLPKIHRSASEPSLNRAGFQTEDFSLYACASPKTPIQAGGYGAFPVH

Holding throughout (test): radiometric kinase profiling (33 PanQinase)
Common to all, as to type: biochemical

The target of one experiment is T1, FLT3 (Homo sapiens, UniProt P36888).
T1 construct: purchased ProQinase (33PanQinase Activity Assay)
The conditions noted are these: read-out: Inhibitory effect (%) FLT3. As to the method:
(§1) The kinase inhibition profile of the compounds was determined by testing 96 protein kinases’ activity using a radiometric protein kinase assay (33 PanQinase® Activity Assay, Proqinase, Germany). In brief, 10 µL of non-radioactive ATP solution (in H2O), 25 µL of assay buffer/[γ-33 P]-ATP mixture, 5 µL of 0.1 μM the tested compound in 10% DMSO and 10 µL of enzyme/substrate were mixed in 96-well FlashPlatesTM (Perkin Elmer, Boston, MA, USA). The reaction was conducted at 30 °C for 60 min. To stop the reaction, 50 µL of 2% (v/v) H3PO4 was added into the protein kinase reaction cocktails. After which, with 200 µL 0.9% (w/v) NaCl twice, the incorporation of ^33 Pi (counting of “cpm”) was determined with a microplate scintillation counter (Wallac Microbeta, Boston, MA, USA). All protein kinase assays were performed using a BeckmanCoulter Biomek 2000/SL robotic system (Brea, CA, USA). The residual activity (in %) for each compound was normalized to 100% enzyme activity (untreated control) and background (negative control).

A further experiment deals with T2, MAP4K4 (Homo sapiens, UniProt O95819).
T2 construct: purchased ProQinase (33PanQinase Activity Assay)
Particulars: read-out: Inhibitory effect (%) MAP4K4. The procedure: as §1

The target in the next experiment is T3, MAP4K5 (Homo sapiens, UniProt Q9Y4K4).
T3 construct: purchased ProQinase (33PanQinase Activity Assay)
The conditions noted are these: read-out: Inhibitory effect (%) MAP4K5. As to the method:
as §1

The target of the next experiment is T4, SIK2 (Homo sapiens, UniProt Q9H0K1).
T4 construct: purchased ProQinase (33PanQinase Activity Assay)
Particulars: read-out: Inhibitory effect (%) SIK2. As to the method: as §1

In a further experiment the target is T5, BRAF (Homo sapiens, UniProt P15056).
T5 construct: purchased Proqinase, Germany
Particulars: read-out: Inhibitory effect (%) BRAF. As to the method:
as §1

For `c1ccc2c(-c3cnn4cc(-c5ccc(N6CCNCC6)cc5)cnc34)ccnc2c1` [LDN-193189, reference compound], the inhibition at 0.1 µM on FLT3 was 3.07%; at MAP4K4, -4.01%; on MAP4K5, 39.7%; on SIK2, 44%; at BRAF, 7.79%.
